Inhibition data for 27 compounds are collected here from PubChem BioAssay AID504558 (Broad Institute, 2011).

SMILES strings stand for the structures. The entries are a selection whose mix differs from that of the whole data set. Active and inactive are the calls of the source. Rule as the data show it: active = inhibition above about 41%; inconclusive = no clear call, values can overlap the other calls; inactive = below that.

The nature of the assay: EBV LMP1-driven NF-kappaB luciferase reporter inhibitors, primary screen, cell-based, luminescence, single point (AID 504558).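 Also: 0% = neutral control wells and 100% = reference inhibitor control.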 Conditions: LMP1-induced NF-kappaB luciferase reporter cells, at 12.5 µM, stronger effect = higher value. Background: Reporter assays use an easily measured gene product as a stand-in for the process of interest.
A word on the inhibition: it is the drop in the measured response relative to a control, in per cent. Turning to `CC(C)C(=O)NC(Sc1ccccc1)C(Cl)(Cl)Cl` (configuration not stated), the inhibition is inactive: -0.294%. To `O=P(Nc1nccs1)(c1ccccc1)c1ccccc1` belongs inactive: 2.69%; to `c1nnnn1CCn1cnnn1`, inactive: -17.2%.

On to `O=P(Nc1ccccn1)(c1ccc(Br)cc1)c1ccc(Br)cc1`, for which the inhibition was inactive: 1.09%.

`CN(C)C1(CNC(=O)c2ccc(Cl)c(S(N)(=O)=O)c2)CCCCC1`: the inhibition was inactive: -2.12%.

`COc1ccc(N)c([N+](=O)[O-])c1[N+](=O)[O-]`: the inhibition is inactive: -7.48%. Under `O=P(Nc1nc2ccccc2s1)(c1ccccc1)c1ccccc1` stands inactive: -7.34%; under `C[C@H]1OP(=O)(Oc2ccccc2)[C@H](O)[C@H](O)[C@H]1N=[N+]=[N-]` (some centres not stated), inactive: 12.5%.

Turning to `O=[As](O)(c1ccccc1)c1ccc(O)cc1`, the inhibition was inactive: -0.347%. Take `O=[N+]([O-])c1ccc(O)c(/C=N/Nc2ccc([N+](=O)[O-])cc2[N+](=O)[O-])c1`: the inhibition was inactive: 13%. `CC(=O)NC(SC(=S)N(C)C)C(Cl)(Cl)Cl` (configuration not stated): the inhibition was inactive: -1.47%.

Regarding `O=[N+]([O-])c1ncn(CCn2cnc([N+](=O)[O-])n2)n1`, the inhibition is inactive: 3%. Under `O=C(OC1CN2CCC1CC2)c1cccc(Cl)c1` (configuration not stated) stands inactive: -3.36%; under `Nc1ccc([As](=O)(O)c2ccc([N+](=O)[O-])cc2)cc1`, inactive: -7.79%; under `C(Cc1nn[nH]n1)Cc1nn[nH]n1`, inactive: 6.15%. To `c1ccc(-c2nn[nH]n2)c(-c2nn[nH]n2)c1` belongs inactive: -12.5%; to `Cc1ccc(NP(=O)(Oc2cccc(C)c2)Oc2cccc(C)c2)nc1`, inactive: -4.86%; to `CCNC(=S)/N=C(\N)N[N+](=O)[O-]`, inactive: -18.2%. As for `O=C(NC1CCS(=O)(=O)C1)NP(=S)(Oc1ccccc1)Oc1ccccc1` (configuration not stated), the inhibition was inactive: -0.205%. With `O=P1(N(CCCl)CCCl)OCCC2CCCCN21` (configuration not stated), the inhibition was inactive: 5.9%. To `O=C(OC1CN2CCC1CC2)c1ccccc1` (configuration not stated) belongs inactive: 1.2%; to `CCC(=O)N1C2C3N(C(=O)CC)C1C1N(C(=O)CC)C(C(N1C(=O)CC)N3C(=O)CC)N2C(=O)CC`, inactive: 1.31%; to `COC(=O)c1cc2c(s1)N=C(c1ccccc1)N(C)P2(=O)N1CCOCC1` (configuration not stated), inactive: 11.5%.

With `CC(=O)NC(SC(=S)N(CC(C)C)CC(C)C)C(Cl)(Cl)Cl` (configuration not stated), the inhibition is inactive: 3.15%. To `Cc1ccc(OP(=O)(Nc2ccccn2)Oc2ccc(C)cc2)cc1` belongs inactive: 1.2%; to `Cc1ccccc1OP(=O)(Nc1ccccn1)Oc1ccccc1C`, inactive: 3.1%. With `CC(NC(=O)COC(=O)C(O)(c1ccccc1)c1ccccc1)c1ccccc1` (configuration not stated), the inhibition was inactive: -1.77%.
